The record followed here is patent US6034134A, “1-Amino-alkylcyclohexane NMDA receptor antagonists” (Merz + Co. GmbH & Co., priority 1998, dated 2000).

In this experiment the target is NMDA receptor. Description: [3H]-(+)-MK-801 binding to rat cortical membranes. Here is the method: Male Sprague-Dawley rats (200-250 g) were decapitated and their brains were removed rapidly. The cortex was dissected and homogenized in 20 volumes of ice-cold 0.32 M sucrose using a glass-Teflon homogenizer. The homogenate was centrifuged at 1000 ×g for 10 minutes. The pellet was discarded and the supernatant centrifuged at 20,000 ×g for 20 minutes. The resulting pellet was re-suspended in 20 volumes of distilled water and centrifuged for 20 minutes at 8000 ×g. Then the supernatant and the buffy coat were centrifuged three times (48,000 ×g for 20 minutes) in the presence of 50 mM Tris-HCl, pH 8.0. All centrifugation steps were carried out at 4° C. […] The amount of protein in the final membrane preparation was determined according to the method of Lowry with some modifications. […]
Membranes were re-suspended and incubated in 50 mM Tris-HCl, pH 8.0. […] Following separation and rinse, the filters were placed into scintillation liquid (5 ml; Ultima Gold) and radio activity retained on the filters was determined with a conventional liquid scintillation counter (Hewlett Packard, Liquid Scintillation Analyser).
IC50 s in patch clamp, excitotoxicity, and binding studies were calculated according to the four parameter logistic equation using the Grafit computer program (Erithacus Software, England). Ki value for binding studies were then determined according to Cheng and Prusoff. […]

Each structure is given as a SMILES string.

In the case of `NC12CC3CC(CC(C3)C1)C2` [Amantadine, reference compound], where the note is “read-out: MK-801 Ki, Table 9, Cheng-Prusoff with Kd for MK-801 of […]”, the Ki – broadly, the dissociation constant of the complex between target and ligand, obtained from inhibition or displacement – was found to be 25.9 µM. Under “read-out: [3H] MK-801 IC50, Table 7, footnote calls the values Ki”, the 50% inhibitory concentration (IC50) (usually the concentration at which inhibition is half-maximal) worked out at 20.4 µM.
